Assay results taken from ChEMBL document CHEMBL5728091, “3-((hetero-)aryl)-alkyl-8-amino-2-oxo-l,3-diaza-spiro-[4.5]-decane derivatives” (2020).

By UniProt entry, the sequences of proteins in these tests, tags left out. Where a name states a change or a piece, a line headed by the entry shows the natural chain unless it says otherwise.
UniProt P35372, whole entry, looked up: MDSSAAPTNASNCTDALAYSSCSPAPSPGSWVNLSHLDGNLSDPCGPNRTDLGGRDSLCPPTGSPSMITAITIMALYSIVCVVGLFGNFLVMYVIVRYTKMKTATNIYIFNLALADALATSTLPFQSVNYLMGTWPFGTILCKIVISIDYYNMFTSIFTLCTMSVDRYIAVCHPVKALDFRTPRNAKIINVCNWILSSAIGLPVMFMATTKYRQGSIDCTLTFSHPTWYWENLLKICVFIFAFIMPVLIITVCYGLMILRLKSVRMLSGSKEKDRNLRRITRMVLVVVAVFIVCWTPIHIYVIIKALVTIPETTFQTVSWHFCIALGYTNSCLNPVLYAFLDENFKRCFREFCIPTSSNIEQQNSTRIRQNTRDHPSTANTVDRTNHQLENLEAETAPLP
UniProt P41146: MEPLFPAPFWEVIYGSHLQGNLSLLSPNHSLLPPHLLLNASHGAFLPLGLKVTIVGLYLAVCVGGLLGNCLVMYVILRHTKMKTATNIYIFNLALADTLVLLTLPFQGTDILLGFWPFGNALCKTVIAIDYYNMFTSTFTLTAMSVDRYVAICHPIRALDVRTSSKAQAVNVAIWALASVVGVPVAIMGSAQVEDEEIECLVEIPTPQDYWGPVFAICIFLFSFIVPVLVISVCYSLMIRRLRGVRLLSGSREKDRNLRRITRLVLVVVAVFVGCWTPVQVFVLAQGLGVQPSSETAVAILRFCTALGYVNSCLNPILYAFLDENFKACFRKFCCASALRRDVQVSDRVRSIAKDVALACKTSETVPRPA

How the values were obtained:
Mu-type opioid receptor = Mu-type opioid receptor (Homo sapiens, UniProt P35372); experiment: Receptor Binding Assay: Mu-Opioid Peptide (hMOP): The hMOP receptor binding assay was performed as homogeneous SPA-assay (scintillation proximity assay) using the assay buffer 50 mM TRIS-HCl (pH 7.4) supplemented with 0.052 mg/ml bovine serum albumin (Sigma-Aldrich Co. St. Louis. Mo.). The final assay volume (250 μl/well) included 1 nM of [N-allyl-2.3-3H]naloxone as ligand (PerkinElmer Life Scienc
Nociceptin receptor = Nociceptin receptor (Homo sapiens, UniProt P41146); experiment: Receptor Binding Assay: The hNOP receptor binding assay was performed as homogeneous SPA-assay (scintillation proximity assay) using the assay buffer 50 mM TRIS-HCl. 10 mM MgCl2. 1 mM EDTA (pH 7.4). The final assay volume (250 ul/well) included 0.5 nM of [leucyl-3H]nociceptin as ligand (PerkinElmer Life Sciences. Inc. Boston. Mass. USA). and either test compound in dilution series or 1 uM unlabell

Work on `COc1ccc(CN2C[C@]3(CC[C@](c4ccccc4)(N(C)C)CC3)N(CC3CC3)C2=O)cc1` yielded a Ki (Mu-type opioid receptor) of 21.5 nM and a Ki (Nociceptin receptor) of 1310 nM.

With `CCCN(C)C(=O)CN1C(=O)N(Cc2ccc(OC)cc2)C[C@]12CC[C@](c1ccccc1)(N(C)C)CC2` the Ki (Mu-type opioid receptor) was 27 nM and the Ki (Nociceptin receptor) was 650 nM.

`CCN(C)[C@]1(c2ccccc2)CC[C@]2(CC1)CN(Cc1cccc(OC)c1)C(=O)N2CC1CCC1` gave a Ki (Mu-type opioid receptor) of 50 nM and a Ki (Nociceptin receptor) of 2150 nM.

In the case of `COc1ccc(CN2C[C@]3(CC[C@](c4ccccc4)(N(C)C)CC3)N(CCO)C2=O)cc1`, the Ki (Mu-type opioid receptor) is reported as 490 nM and the Ki (Nociceptin receptor) is reported as 4020 nM.

Work on `COc1ccc(CN2C[C@]3(CC[C@](c4ccccc4)(N(C)C)CC3)N(CCC(C)(C)O)C2=O)cc1` yielded a Ki (Mu-type opioid receptor) of 57 nM and a Ki (Nociceptin receptor) of 1700 nM.

With `CNC(=O)CN1C(=O)N(Cc2ccc(OC)cc2)C[C@]12CC[C@](c1ccccc1)(N(C)C)CC2` the Ki (Mu-type opioid receptor) was 390 nM and the Ki (Nociceptin receptor) was 3430 nM.

`CN(C)[C@]1(c2ccccc2)CC[C@]2(CC1)CN(Cc1ccc(C(F)(F)F)nc1)C(=O)N2CC1CCC1` was tested, and the Ki (Mu-type opioid receptor) was 3.5 nM and the Ki (Nociceptin receptor) was 150 nM.

With `CN(C)C1(c2ccccc2)CCC2(CC1)CN(Cc1cn(CC(N)=O)nn1)C(=O)N2` (configuration not stated) the Ki (Mu-type opioid receptor) was 340 nM and the Ki (Nociceptin receptor) was 4940 nM.

For `COCCN(C)[C@]1(c2ccccc2)CC[C@]2(CC1)CN(Cc1ccc(OC)cc1)C(=O)N2CC1CCC1`, the Ki (Mu-type opioid receptor) was 195 nM and the Ki (Nociceptin receptor) was 1920 nM.

In the case of `COc1ccc(CN2C[C@]3(CC[C@](c4ccccc4)(N(C)C)CC3)N(CCC(C)(C)OC)C2=O)cc1`, the Ki (Mu-type opioid receptor) is reported as 10.1 nM and the Ki (Nociceptin receptor) is reported as 195 nM.

With `CCCNC(=O)CN1C(=O)N(Cc2ccc(OC)cc2)C[C@]12CC[C@](c1ccccc1)(N(C)C)CC2` the Ki (Mu-type opioid receptor) was 24 nM and the Ki (Nociceptin receptor) was 1570 nM.

`CN(C)[C@]1(c2ccccc2)CC[C@]2(CC1)CN(Cc1ccncc1)C(=O)N2` was tested, and the Ki (Mu-type opioid receptor) was 240 nM and the Ki (Nociceptin receptor) was 4080 nM.

In the case of `COc1ccc(CN2C[C@]3(CC[C@](c4cccc(O)c4)(N(C)C)CC3)N(CC3CCC3)C2=O)cc1`, the Ki (Mu-type opioid receptor) is reported as 70.8 nM and the Ki (Nociceptin receptor) is reported as 66.8 nM.

Work on `COCCCN1C(=O)N(Cc2ccc(OC)cc2)C[C@]12CC[C@](c1ccccc1)(N(C)C)CC2` yielded a Ki (Mu-type opioid receptor) of 11.5 nM and a Ki (Nociceptin receptor) of 310 nM.

With `CN(C)[C@]1(c2ccccc2)CC[C@]2(CC1)CN(C(C)(C)c1ccccc1)C(=O)N2` the Ki (Mu-type opioid receptor) was 325 nM.

With `COc1ccc(CN2C[C@]3(CC[C@](c4ccccc4)(N(C)C)CC3)N(CC(=O)NC3(C#N)CC3)C2=O)cc1` the Ki (Mu-type opioid receptor) was 41 nM and the Ki (Nociceptin receptor) was 2000 nM.

With `COc1ccc(CN2C[C@]3(CC[C@](c4ccccc4)(N(C)C)CC3)N(Cc3cccnc3)C2=O)cc1` the Ki (Mu-type opioid receptor) was 49.5 nM and the Ki (Nociceptin receptor) was 195 nM.

`COc1ccc(CN2C[C@]3(CC[C@](c4ccccc4)(N(C)C)CC3)N(CC(C)(C)C)C2=O)cc1` gave a Ki (Mu-type opioid receptor) of 39 nM and a Ki (Nociceptin receptor) of 1240 nM.

Work on `CCN(C)[C@]1(c2ccccc2)CC[C@]2(CC1)CN(Cc1ccc(OC)cc1)C(=O)N2CC1CCC1` yielded a Ki (Mu-type opioid receptor) of 106 nM and a Ki (Nociceptin receptor) of 3180 nM.

`COc1ccc(CN2C[C@]3(CC[C@](c4ccccc4)(N(C)C)CC3)N(CC3(F)CCC3)C2=O)cc1` was tested, and the Ki (Mu-type opioid receptor) was 19.3 nM and the Ki (Nociceptin receptor) was 710 nM.

`COc1ccc(CN2C[C@]3(CC[C@](c4ccccc4)(N(C)C)CC3)N(C(=O)OCc3ccccc3)C2=O)cc1` gave a Ki (Mu-type opioid receptor) of 160 nM and a Ki (Nociceptin receptor) of 250 nM.

For `C=CCN(C)[C@]1(c2ccccc2)CC[C@]2(CC1)CN(Cc1ccc(OC)cc1)C(=O)N2CC1CCC1`, the Ki (Mu-type opioid receptor) was 690 nM.

In the case of `CN(C)[C@]1(c2ccccc2)CC[C@]2(CC1)CN(Cc1ccnc(N3CCOCC3)c1)C(=O)N2`, the Ki (Mu-type opioid receptor) is reported as 115 nM and the Ki (Nociceptin receptor) is reported as 6980 nM.

`CN[C@]1(c2ccccc2)CC[C@]2(CC1)CN(Cc1cccnc1)C(=O)N2CC1CCC1` showed a Ki (Mu-type opioid receptor) of 4.6 nM and a Ki (Nociceptin receptor) of 140 nM.

For `COc1ccc(CN2C[C@]3(CC[C@](c4ccccc4)(N(C)C)CC3)N(CC(=O)N(C)C)C2=O)cc1`, the Ki (Mu-type opioid receptor) was 18 nM and the Ki (Nociceptin receptor) was 3430 nM.

In the case of `CN(C)[C@]1(c2ccccc2)CC[C@]2(CC1)CN(Cc1ccccc1)C(=O)N2CC1CCC1`, the Ki (Mu-type opioid receptor) is reported as 1.3 nM and the Ki (Nociceptin receptor) is reported as 81 nM.

For `COc1ccc(CN2C[C@]3(CC[C@@](N)(c4ccccc4)CC3)N(CC3(O)CCC3)C2=O)cc1`, the Ki (Nociceptin receptor) was 3840 nM.

For `COCCCCN1C(=O)N(Cc2ccc(OC)cc2)C[C@]12CC[C@](c1ccccc1)(N(C)C)CC2`, the Ki (Mu-type opioid receptor) was 34.5 nM and the Ki (Nociceptin receptor) was 230 nM.

`COCCOCCOCCOCCOCCOCCOCCOCCN1C(=O)N(Cc2ccc(OC)cc2)CC12CCC(c1ccccc1)(N(C)C)CC2` (configuration not stated) showed a Ki (Mu-type opioid receptor) of 405 nM and a Ki (Nociceptin receptor) of 5250 nM.

For `COc1ccc(CN2C[C@]3(CC[C@](c4ccccc4)(N(C)C)CC3)N(CC(=O)O)C2=O)cc1`, the Ki (Mu-type opioid receptor) was 530 nM.

`CN(C)[C@]1(c2ccccc2)CC[C@]2(CC1)CN(Cc1ccc(C(N)=O)cc1)C(=O)N2CC1CCC1` showed a Ki (Mu-type opioid receptor) of 17.6 nM and a Ki (Nociceptin receptor) of 385 nM.

`CN[C@]1(c2ccccc2)CC[C@]2(CC1)CN(Cc1cn(CCO)nn1)C(=O)N2CC1(O)CCC1` was tested, and the Ki (Mu-type opioid receptor) was 130 nM and the Ki (Nociceptin receptor) was 330 nM.

With `CN(C)[C@]1(c2ccccc2)CC[C@]2(CC1)CN(CCc1ccncc1)C(=O)N2` the Ki (Mu-type opioid receptor) was 106 nM and the Ki (Nociceptin receptor) was 3690 nM.

`COc1ccccc1CN1C[C@]2(CC[C@](c3ccccc3)(N(C)C)CC2)NC1=O` showed a Ki (Mu-type opioid receptor) of 108 nM and a Ki (Nociceptin receptor) of 2660 nM.

Work on `CN(C)[C@]1(c2ccccc2)CC[C@]2(CC1)CN(Cc1ccnc(N3CCCCC3)c1)C(=O)N2` yielded a Ki (Mu-type opioid receptor) of 25 nM and a Ki (Nociceptin receptor) of 845 nM.

For `CN(C)[C@]1(c2ccccc2)CC[C@]2(CC1)CN(Cc1ccccn1)C(=O)N2`, the Ki (Mu-type opioid receptor) was 190 nM.

For `COc1ccc(CN2C[C@]3(CC[C@](c4ccccc4)(N(C)C)CC3)N(CC(C)(C)O)C2=O)cc1`, the Ki (Mu-type opioid receptor) was 48 nM and the Ki (Nociceptin receptor) was 1450 nM.

`CN(C)[C@]1(c2ccccc2)CC[C@]2(CC1)CN(Cc1c[nH]nn1)C(=O)N2` showed a Ki (Mu-type opioid receptor) of 405 nM and a Ki (Nociceptin receptor) of 5290 nM.

For `CNC(=O)CCN1C(=O)N(Cc2ccc(OC)cc2)C[C@]12CC[C@](c1ccccc1)(N(C)C)CC2`, the Ki (Mu-type opioid receptor) was 325 nM and the Ki (Nociceptin receptor) was 3460 nM.

In the case of `CN(C)[C@]1(c2ccccc2)CC[C@]2(CC1)CN(Cc1cn(CCO)nn1)C(=O)N2CC1(O)CCC1`, the Ki (Mu-type opioid receptor) is reported as 22 nM and the Ki (Nociceptin receptor) is reported as 130 nM.

`COc1ccc(CN2C[C@]3(CC[C@](c4ccccc4)(N(C)C)CC3)N(CC(C)(C)C#N)C2=O)cc1` gave a Ki (Mu-type opioid receptor) of 11.8 nM and a Ki (Nociceptin receptor) of 1320 nM.

`CN(C)[C@]1(c2ccccc2)CC[C@]2(CC1)CN(Cc1cccnc1)C(=O)N2` gave a Ki (Mu-type opioid receptor) of 250 nM.

In the case of `CCN1C(=O)N(Cc2ccccc2)C[C@]12CC[C@](c1ccccc1)(N(C)C)CC2`, the Ki (Mu-type opioid receptor) is reported as 720 nM and the Ki (Nociceptin receptor) is reported as 2480 nM.

`COc1ccc(CN2C[C@]3(CC[C@](c4ccc(OC)cc4)(N(C)C)CC3)N(CC3CCC3)C2=O)cc1` showed a Ki (Mu-type opioid receptor) of 125 nM and a Ki (Nociceptin receptor) of 18.4 nM.

With `COc1ccc(CN2C[C@]3(CC[C@](c4cccc(F)c4)(N(C)C)CC3)N(CC3CCC3)C2=O)cc1` the Ki (Mu-type opioid receptor) was 88.5 nM.

Work on `COc1ccc(CN2C[C@]3(CC[C@](c4ccccc4)(N(C)C)CC3)N(CC3(O)CCCCC3)C2=O)cc1` yielded a Ki (Mu-type opioid receptor) of 18.5 nM and a Ki (Nociceptin receptor) of 5880 nM.

For `COc1ccc(CN2C[C@]3(CC[C@](c4ccccc4)(N(C)C)CC3)N(CCS(C)(=O)=O)C2=O)cc1`, the Ki (Mu-type opioid receptor) was 159 nM and the Ki (Nociceptin receptor) was 1680 nM.

In the case of `COCCC[C@]1(N(C)C)CC[C@@]2(CC1)CN(Cc1ccc(OC)cc1)C(=O)N2CC1CCC1`, the Ki (Mu-type opioid receptor) is reported as 455 nM and the Ki (Nociceptin receptor) is reported as 90 nM.

Work on `COc1ccc(CN2C[C@]3(CC[C@](c4ccccc4)(N(C)C)CC3)N(C[C@H](C)O)C2=O)cc1` yielded a Ki (Nociceptin receptor) of 90 nM.

In the case of `CCN(C)[C@]1(c2ccccc2)CC[C@]2(CC1)CN(Cc1cccc(C#N)c1)C(=O)N2CC1CCC1`, the Ki (Mu-type opioid receptor) is reported as 12 nM and the Ki (Nociceptin receptor) is reported as 1420 nM.

Work on `CN(C)[C@]1(c2ccccc2)CC[C@]2(CC1)CN(Cc1ccccn1)C(=O)N2CC1CCC1` yielded a Ki (Mu-type opioid receptor) of 3.3 nM and a Ki (Nociceptin receptor) of 84.5 nM.

For `COc1ccc(CN2C[C@]3(CC[C@](c4ccccc4)(N(C)C)CC3)N(Cc3ccccc3)C2=O)cc1`, the Ki (Mu-type opioid receptor) was 85.5 nM and the Ki (Nociceptin receptor) was 600 nM.

Compound `CN(C)[C@]1(c2ccccc2)CC[C@]2(CC1)CN(CCc1cncnc1)C(=O)N2` has a Ki (Mu-type opioid receptor) of 240 nM.
